# Experimental data from PubChem BioAssay AID504466 (National Center for Advancing Translational Sciences (NCATS), 2011).
# The list shows a part of the results, in another mix than the full data. Inconclusive results are not listed. The source made the active and inactive calls. Calls come from the whole dose curve; as a rule, active = well fitted activation curve with a large enough effect; inconclusive = small, poorly fitted or top-dose-only effect; inactive = no such curve, though single readings can be large or run the other way.
# Assay: qHTS screen for small molecules that induce genotoxicity in human embryonic kidney (HEK293T) cells expressing luciferase-tagged ELG1; note: % of control where 0% means no effect; nearly all actives have a fitted effect of over 60% in size
# Settings: HEK293T ELG1-luciferase reporter, luminescence, 16 h; at 46 µM (top of the series)
# Excerpt: NIH Molecular Libraries Probe Production Network [MLPCN] NIH Chemical Genomics Center [NCGC] MLPCN Grant: 1 R03 MH092164-01 Assay Provider: Kyungjae Myung, NHGRI, NIH Keywords: MLPCN, qHTS, NCGC, genotoxicity, cancer Assay Overview: Cancer cells divide rapidly compared to normal cells in the body. During cell division, cancer cells need to duplicate their genome by DNA replication. The failure of genome duplication leads to cancer cells' death. Therefore, inhibitors of DNA replication could specifically kill cancer cells. Based on this concept, many chemotherapeutic agents were developed and have been used to treat cancer patients. However, there are a limited number of agents available in the clinical setting, and some of those that do exist have low efficacy and severe side effects. Therefore, if we can find the compounds that effectively block DNA replication either by directly damaging DNA or by inhibiting other cellular mechanisms, the options for cancer treatment will be broadened. With this in mind, we developed a quantitative high-throughput ELG1-luciferase reporter gene assay. Since the level of human ELG1 protein is enhanced in response to genetic stresses, increases in luciferase activity can be used to identify compounds that cause genetic stress.
# Assay Protocol Summary: For genotoxicity screening, 2,000 cells in 5 uL/well were dispensed into white, solid-bottom 1536-well plates using a solenoid-based dispenser. Following transfer of 23 nL compound or DMSO vehicle by a pin tool, the plates were incubated 16 hr at 37 °C and 5% CO2. 5 ul ONE-Glo (Promega) was then added to each plate and following a 30 min incubation at room temperature, luciferase activity was quantified on a ViewLux CCD-based plate reader.
row,Structure (SMILES),"activity change, positive = activation"
1,O=[N+]([O-])c1cc([N+](=O)[O-])c(-n2nnc3ccccc32)c([N+](=O)[O-])c1,inactive: -0.52%
2,Cc1nc2ccc3ccccc3c2s1.O=[N+]([O-])c1cc([N+](=O)[O-])c(O)c([N+](=O)[O-])c1,inactive: 1.23%
3,CC1=C2N=C(C=C3N=C(C(C)=C4[N-][C@@](C)([C@@H]5N=C1[C@](C)(CCC(=O)NC[C@@H](C)OP(=O)([O-])O[C@H]1[C@@H](O)[C@@H](n6cnc7cc(C)c(C)cc76)O[C@@H]1CO)[C@H]5CC(N)=O)[C@@](C)(CC(N)=O)[C@@H]4CCC(N)=O)[C@@](C)(CC(N)=O)[C@@H]3CCC(N)=O)C(C)(C)[C@@H]2CCC(N)=O.[C-]#N.[Co+3],inactive: -46.6%
4,O=[N+]([O-])c1cc([N+](=O)[O-])c(Nc2nnnn2CCO)c([N+](=O)[O-])c1,inactive: -4.93%
5,COc1ccccc1OP(C)(=O)Nc1c(C)cccc1C (configuration not stated),inactive: 0.913%
6,CN1CCCCC1COC(=O)C1(O)c2ccccc2CCc2ccccc21 (configuration not stated),inactive: -1.54%
7,CCCOc1ccc(NP(C)(=O)Oc2ccc(Cl)cc2)cc1 (configuration not stated),inactive: -0.42%
8,CP(=O)(Nc1ccc(SC(F)(F)F)cc1)Oc1ccccc1 (configuration not stated),inactive: 1.02%
9,CC1=NCCc2c1[nH]c1ccccc21.O=[N+]([O-])c1cc([N+](=O)[O-])c(O)c([N+](=O)[O-])c1,inactive: -1.81%
10,COc1ccccc1OP(C)(=O)Nc1cccc(Br)c1 (configuration not stated),inactive: -0.86%
11,Cc1cc(C)cc(OP(C)(=O)Nc2ccc(C)cc2C)c1 (configuration not stated),inactive: -1.08%
12,CCOC(=O)c1ccc(NP(C)(=O)Oc2cc(C)cc(C)c2)cc1 (configuration not stated),inactive: -2.09%
13,Cc1cc(C)cc(OP(C)(=O)Nc2ccccn2)c1 (configuration not stated),inactive: 1.5%
14,CP(=O)(Nc1cccc(Br)c1)Oc1ccccc1 (configuration not stated),inactive: -9.91%
15,Cc1ccc(C)c(NP(C)(=O)Oc2ccccc2)c1 (configuration not stated),inactive: 2.18%
16,CCN(CC)CCCOC(=O)C(O)(c1ccccc1)c1ccccc1,inactive: 3.37%
17,O=[N+]([O-])c1cc([N+](=O)[O-])c(Nc2cccnc2)c([N+](=O)[O-])c1,inactive: -6.96%
18,Cc1cccc(C)c1OP(C)(N)=O (configuration not stated),inactive: -9.78%
19,CC(C)(C)c1ccc(OP(C)(=O)Nc2ccc(SC(F)(F)F)cc2)cc1 (configuration not stated),inactive: -1.43%
20,CCOC(=O)c1ccc(NP(C)(=O)Oc2ccccc2)cc1 (configuration not stated),inactive: 0.972%
21,Cc1ccc(NP(C)(=O)Oc2ccccc2)c(C)c1 (configuration not stated),inactive: -3.94%
22,COc1ccccc1OP(C)(=O)Nc1ccc(C)cc1 (configuration not stated),inactive: -0.872%
